This note sets out measurements from ChEMBL document CHEMBL1127443 (J Med Chem, 1994).

Sequences of proteins named here, by UniProt entry; tags and fusion partners are left off. A change or cut given only in a name is not applied to a line headed by its entry.
UniProt P08908, whole entry: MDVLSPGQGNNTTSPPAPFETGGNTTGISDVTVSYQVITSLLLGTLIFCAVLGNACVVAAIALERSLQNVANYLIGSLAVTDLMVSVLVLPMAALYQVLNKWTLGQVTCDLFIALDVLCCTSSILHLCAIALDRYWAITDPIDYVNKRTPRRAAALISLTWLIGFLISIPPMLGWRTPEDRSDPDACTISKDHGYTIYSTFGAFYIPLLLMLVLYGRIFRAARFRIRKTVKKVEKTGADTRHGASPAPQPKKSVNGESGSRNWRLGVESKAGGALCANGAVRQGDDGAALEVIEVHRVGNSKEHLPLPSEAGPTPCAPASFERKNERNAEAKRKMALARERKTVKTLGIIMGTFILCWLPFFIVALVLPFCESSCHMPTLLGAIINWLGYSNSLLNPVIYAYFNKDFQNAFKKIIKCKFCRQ
UniProt P35563, whole entry: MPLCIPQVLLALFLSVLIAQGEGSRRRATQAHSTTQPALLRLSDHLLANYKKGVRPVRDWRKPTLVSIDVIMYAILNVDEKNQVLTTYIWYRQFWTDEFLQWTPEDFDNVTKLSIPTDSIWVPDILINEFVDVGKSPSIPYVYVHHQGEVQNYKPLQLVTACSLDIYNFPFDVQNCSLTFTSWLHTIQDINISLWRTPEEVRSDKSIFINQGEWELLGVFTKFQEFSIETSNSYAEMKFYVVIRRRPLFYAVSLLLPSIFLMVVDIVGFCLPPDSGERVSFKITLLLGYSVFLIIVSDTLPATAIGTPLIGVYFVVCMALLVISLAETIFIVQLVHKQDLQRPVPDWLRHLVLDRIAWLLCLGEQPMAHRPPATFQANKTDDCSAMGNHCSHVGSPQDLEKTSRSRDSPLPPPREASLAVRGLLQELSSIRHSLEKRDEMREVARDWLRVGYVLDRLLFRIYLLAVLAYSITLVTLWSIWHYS
UniProt Q9JJ16: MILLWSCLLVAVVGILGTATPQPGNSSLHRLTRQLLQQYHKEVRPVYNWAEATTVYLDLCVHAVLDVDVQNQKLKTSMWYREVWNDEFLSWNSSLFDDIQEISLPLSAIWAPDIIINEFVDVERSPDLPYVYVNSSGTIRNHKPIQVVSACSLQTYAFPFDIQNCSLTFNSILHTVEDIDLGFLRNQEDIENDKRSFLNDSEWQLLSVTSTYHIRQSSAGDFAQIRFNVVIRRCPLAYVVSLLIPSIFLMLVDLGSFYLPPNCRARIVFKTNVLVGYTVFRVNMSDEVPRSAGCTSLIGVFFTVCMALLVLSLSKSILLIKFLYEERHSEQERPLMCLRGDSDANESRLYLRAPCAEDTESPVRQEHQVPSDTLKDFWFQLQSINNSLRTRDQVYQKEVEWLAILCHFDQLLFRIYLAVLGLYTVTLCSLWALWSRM

In assay [1] the target is 5-hydroxytryptamine receptor 1A (Homo sapiens, UniProt P08908). Kind of assay: biochemical.
The target in assay [2] is Serotonin 3 (5-HT3) receptor (Rattus norvegicus, UniProt P35563+Q9JJ16). Kind of assay: Binding affinity was measured on 5-hydroxytryptamine 3 receptor in NG-108 cells labeled with [3H]GR-65630. The class given is cell-based.

What is called Ki is the equilibrium dissociation constant of an inhibitor or competing ligand from its target. A high value points to weaker binding. With `CNS(=O)(=O)Cc1ccc2[nH]cc(CCN(C)C)c2c1`, the affinity in assay [1] corresponds to a Ki of 330 nM.
Regarding `NCCc1c[nH]c2ccc(O)cc12` [SEROTONIN], affinity in assay [2] was put at a Ki of 320 nM.
